In brackets after ≈: the same amount, converted by molar mass.

The term MIC denotes the lowest concentration found to suppress growth. A lower MIC goes with a more susceptible organism.

The assay has as its system Entercoccus faecium 180-1. The experiment in a line: broth micro-dilution MIC. The class given is cell-based. Here is the method:
The formula I compounds have in vitro and in vivo activity against Gram-positive pathogenic bacteria. The MIC's were determined using a standard broth micro-dilution assay.
Background: Broth dilution looks for growth in wells or tubes with falling amounts of substance.

The compound `CN[C@H](CC(C)C)C(=O)N[C@H]1C(=O)N[C@@H](CC(N)=O)C(=O)N[C@H]2C(=O)N[C@H]3C(=O)N[C@H](C(=O)N[C@H](C(=O)O)c4cc(O)cc(O)c4-c4cc3ccc4O)[C@H](O)c3ccc(c(Cl)c3)Oc3cc2cc(c3O[C@@H]2O[C@H](CO)[C@@H](O)[C@H](O)[C@H]2O[C@H]2C[C@](C)(N)[C@H](O)[C@H](C)O2)Oc2ccc(cc2Cl)[C@H]1O` [vancomycin, reference compound] displayed an MIC of 0.5 µg/mL (≈ 0.345 µM).

For the origin of these results see patent publication US5840684A, “Glycopeptide antibiotic derivatives” (Eli Lilly and Company, priority 1995, dated 1998).
